Compound activity: PubChem, ICCB-Longwood Screening Facility, Harvard Medical School
A selection: hits, their analogues and other compounds. The true share with any hit is near 0.46%.
GIV-Gai inh – inhibitors of GIV peptide binding to Galpha-i3, primary screen, biochemical, fluorescence polarization, FITC-GIV GBA peptide, rat Galphai3 | 90 min; hits give low values; scaled: aluminum fluoride 0%, vehicle 100% | percent of control (FP), % (concentration not given with the values) | 210,000 compounds, 0.42% hits | AID 1224905, 2016;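 active = replicate mean at 85% of control or lower, very high polarization wells dropped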;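 also: wells of about 15 µL received 100 nL stock; the first replicate is given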
HCMV NEC inh – disrupts HCMV UL50-UL53 complex binding. HTRF UL50-UL53 interaction, normalized percent inhibition. inhibition, % (concentration not given with the values). hit rate 0.15% among 190,000. AID 1918969; in the data active means inhibition above about 27%, passing the limit was not always enough
* = called active by the depositor; nt = no result given.

Under each structure – HCMV NEC inh	GIV-Gai inh
CC(C)(C)c1ccc(-c2nc3sc4c(c3c(=O)o2)CCCC4)cc1
  -25.5	103.0
Cc1n[nH]c(C)c1N1C(=O)c2cccc3c(N4CCCCC4)ccc(c23)C1=O
  -115.7	-6.8*
O=C1c2cccc3c(N4CCOCC4)ccc(c23)C(=O)N1c1ccccc1
  -90.6	94.0
CCN1/C(=C/C=C2\SC(=S)N(C)C2=O)Oc2ccccc21
  -50.4	161.8
CCCN1C(=O)/C(=C/C=C2/Oc3ccccc3N2CCC(=O)O)N(CCO)C1=S
  nt	-18.2*
O=C1NC(=O)c2cc(Cl)c(Cl)cc21
  -100.1	nt
NC(=S)c1cc2ccc(O)cc2oc1=O
  -107.4	124.3
NC(=S)c1cc2ccccc2oc1=O
  nt	6.0*
N#CCc1c(C#N)c(N)nc(Nc2ccccc2)c1C#N
  72.0*	nt
CSc1nc(-c2ccccc2)nc(Nc2ccccc2)c1C#N
  -14.8	102.5
Cc1ccc2nc(SCC(=O)NC(C)C)nc(=O)n2c1
  -3.5	106.4
CCN1CC=C2C(C1)C(c1ccc(Cl)s1)C(C#N)=C(N)C2(C#N)C#N (stereo unspecified)
  -28.6	-52.5*
CCCN1CC=C2C(C1)C(c1ccc(C(=O)OC)cc1)C(C#N)=C(N)C2(C#N)C#N (stereo unspecified)
  -55.7	109.6
CN(C)C(=O)COc1ccccc1C(=O)O
  -20.1	nt
COc1ccc(Br)cc1/C=C1\N=C(c2cc(OC)c(OC)c(OC)c2)OC1=O
  nt	107.9
COc1ccc(Br)cc1/C=C1/N=C(c2ccc(OC)c(OC)c2)OC1=O
  nt	-11.5*
COc1cc(OC)c(OC)cc1/C=C1\N=C(c2cccc(Br)c2)OC1=O
  nt	171.7
COc1cc(OC)c(OC)cc1/C=C1\N=C(c2cncc(Br)c2)OC1=O
  nt	-8.4*
Cc1cc2c(cc1C)C(C)CC(C)(C)N2 (stereo unspecified)
  -4.2	95.5
COc1cccc2c1C(=O)c1c(O)c3c(c(O)c1C2=O)C[C@@](O)(C(C)=O)C[C@@H]3O[C@H]1C[C@H](N)[C@H](O)[C@H](C)O1
  -180.6	46.8*
COc1cccc2c1C(=O)c1c(O)c3c(c(O)c1C2=O)C[C@@](O)(C(C)=O)CC3O[C@H]1CC(N)C(O)C(C)O1 (stereo partly specified)
  -249.3	nt
COc1cccc2c1C(=O)c1c(O)c3c(c(O)c1C2=O)C[C@@](O)(C(=O)CO)CC3O[C@H]1CC(N)C(O)C(C)O1 (stereo partly specified)
  -190.3	nt
CC(=O)[C@]1(O)Cc2c(O)c3c(c(O)c2[C@@H](O[C@H]2C[C@H](N)[C@H](O)[C@H](C)O2)C1)C(=O)c1ccccc1C3=O
  -145.0	-45.9*
COC(=O)c1c(NC(=O)CCN2C(=O)c3ccccc3C2=O)sc2c1CCC2
  -13.1	99.5
O=C(CN1C(=O)CCc2ccccc21)NC1CCCc2ccccc21 (stereo unspecified)
  nt	99.1
CN1CCCCC/C1=N/c1nc(-c2ccccc2)cs1
  -17.5	nt
O=C(O)c1cc(NC(=O)c2cccc(N3C(=O)c4cccc5c([N+](=O)[O-])ccc(c45)C3=O)c2)cc(C(=O)O)c1
  -20.1	84.7*
O=C(O)c1cccc(N2C(=O)c3ccc4c5c(ccc(c35)C2=O)C(=O)N(c2cccc(C(=O)O)c2)C4=O)c1
  -43.1	104.7
CN(C)C1C(=O)C(C(N)=O)=C(O)C2(O)C(=O)C3=C(O)c4c(O)ccc(Cl)c4C(O)C3CC12 (stereo unspecified)
  -54.1	nt
C=C1c2cccc(O)c2C(O)=C2C(=O)C3(O)C(O)=C(C(N)=O)C(=O)C(N(C)C)C3C(O)C12 (stereo unspecified)
  103.9*	103.3
COC(=O)c1ccc(N)cc1O
  -20.3	100.5
COC(=O)c1ccc(=O)c2nc3/c(=C/O)c(O)cc(=O)c3[nH]c12
  49.6*	100.2
CCOC(=O)C1=C(C)N=c2s/c(=C\c3ccc(O)c(Br)c3)c(=O)n2C1c1ccc(OC)cc1 (stereo unspecified)
  -10.5	186.5
CCOC(=O)C1=C(C)N=c2s/c(=C\c3ccc(O)c(Br)c3)c(=O)n2C1c1ccc(OC)c(OC)c1 (stereo unspecified)
  -11.7	70.7*
OC(COc1ccc(Cl)cc1)(c1nnc(-c2ccccc2)o1)c1nnc(-c2ccccc2)o1
  -24.7	nt
CCCN1C(=O)/C(=C/c2cc(Br)c(O)c(OCC)c2)NC1=S
  -65.0	-83.2*
CCCN1C(=O)/C(=C/c2ccc(CC)cc2)NC1=S
  nt	103.8
COc1ccc(C2CC(c3ccccc3)n3ncnc3N2C(=O)C2CC2)cc1 (stereo unspecified)
  nt	97.1
COc1cccc2cc(C(=O)C3=C(O)C(=O)N(CCCn4ccnc4)C3c3ccc(F)cc3)oc12 (stereo unspecified)
  -60.8	104.7
COc1cc(C2C(C(=O)c3cc4cccc(OC)c4o3)=C(O)C(=O)N2c2nnc(C)s2)cc(Br)c1O (stereo unspecified)
  -73.7	27.4*
CN1CCCc2cc(/C=C3\CC/C(=C/c4ccc5c(c4)N(C)CCC5)C3=O)ccc21
  nt	-74.8*
CN1CCCc2cc(/C=C3\CCC(C4CCCC4)C3=O)ccc21 (stereo unspecified)
  nt	157.1
NCCCCOc1ccc(F)cc1
  -4.6	nt
CC1C(C#N)=C(N)SC(N)=C1C#N
  29.5	-20.3*
CCCC1C(C#N)=C(N)SC(N)=C1C#N
  -11.0	nt
CCOC(=O)c1c(C)c(S(=O)(=O)Nc2cc(Cl)c(OC)cc2OC)c(C)n1C
  2.6	107.9
NC(=O)CC(CC(N)=O)c1c(Cl)cccc1Cl
  -3.9	105.7
COc1cccc(/C(O)=C/c2nc3ccc(C(=O)N4CCN(C5CCCCC5)CC4)cc3[nH]c2=O)c1
  -74.1	109.9
COc1cccc(/C(O)=C/c2nc3ccc(C(=O)N4CCN(c5ccccn5)CC4)cc3[nH]c2=O)c1
  -43.5	54.9*
CCc1ccc(NC(=O)CSc2ncnc3c2sc2ccccc23)cc1
  nt	100.7
O=C(CSc1nc2cc(-c3ccccc3)[nH]c2c(=O)n1Cc1ccccc1)N1CCCCC1
  13.7	110.1
CN1c2cc(Cl)ccc2-c2nc(SCC(=O)Nc3cc(F)ccc3F)ncc2S1(=O)=O
  78.2*	109.9
Cc1ccc(NC(=O)CSc2ncc3c(n2)-c2ccc(Cl)cc2N(C)S3(=O)=O)cc1F
  nt	102.7
CN1c2cc(Cl)ccc2-c2nc(SCC(=O)Nc3ccc(F)cc3F)ncc2S1(=O)=O
  nt	103.8
CN1c2cc(Cl)ccc2-c2nc(SCC(=O)Nc3nccs3)ncc2S1(=O)=O
  36.4*	106.7
O=C(Nc1ccccc1Br)N1CCCN(c2ccc(=O)n(-c3ccc(F)cc3)n2)CC1
  -50.1	109.1
C/C(=N\N=C(N)N)c1ccc(C)cc1
  7.9	109.2
CCCN(Cc1nnc(-c2ccco2)o1)C(=O)c1cccnc1SCc1c(C)noc1C
  -35.2	nt
Cc1ccc(NC(=O)c2ccc(=O)n(CCC(=O)N3CCN(c4ccccn4)CC3)n2)cc1C
  -5.4	105.0
CC1Cc2ccccc2N1S(=O)(=O)c1ccc2[nH]c(=O)[nH]c2c1 (stereo unspecified)
  -10.3	nt

Later entries.
Under each structure – HCMV NEC inh	GIV-Gai inh
Cc1[nH]c(=O)[nH]c(=O)c1S(=O)(=O)N1c2ccccc2CC1C (stereo unspecified)
  nt	-73.1*
O=C(CSc1nnnn1Cc1ccccc1)Nc1ccccc1Oc1ccccc1
  -10.7	nt
CCCn1nnc(NCc2ccc(-c3ccc(Br)cc3Br)o2)n1
  0.9	100.2
COc1cc(NC(=O)c2cc3nc(-c4ccco4)cc(C(F)(F)F)n3n2)c(OC)cc1Cl
  -7.0	102.7
COc1ccc(/C(O)=C(/C#N)c2nc3ccccc3s2)cc1
  -10.1	nt

In the list so far, these contain two or more sulfur atoms.
Under each structure – HCMV NEC inh	GIV-Gai inh
CCN1/C(=C/C=C2\SC(=S)N(C)C2=O)Oc2ccccc21
  -50.4	161.8
CCc1ccc(NC(=O)CSc2ncnc3c2sc2ccccc23)cc1
  nt	100.7
CN1c2cc(Cl)ccc2-c2nc(SCC(=O)Nc3cc(F)ccc3F)ncc2S1(=O)=O
  78.2*	109.9
Cc1ccc(NC(=O)CSc2ncc3c(n2)-c2ccc(Cl)cc2N(C)S3(=O)=O)cc1F
  nt	102.7
CN1c2cc(Cl)ccc2-c2nc(SCC(=O)Nc3ccc(F)cc3F)ncc2S1(=O)=O
  nt	103.8
CN1c2cc(Cl)ccc2-c2nc(SCC(=O)Nc3nccs3)ncc2S1(=O)=O
  36.4*	106.7
